Laboratory results as given in patent publication US11235020B2, “Methods and compositions for inhibiting glyoxalase 1 (GLO1)” (priority 2013, dated 2022).
Like-named read-outs stand apart in the source and are kept apart here.

Experiments:
[1] = tested on: GABAA receptors in hippocampal neurons; experiment: Whole-cell patch clamp in hippocampal neurons (HN); format: cell-based, rat
[2] = tested on: GABAA receptors in cerebellar granule neurons; experiment: Whole-cell patch clamp in cerebellar granule neurons (CGN); format: cell-based, rat
apoptosis in the brain = conditions: 24 hours after treatment
[3] = HPLC measurement of MG concentration in whole brain after i.p. MG; format: in vivo, mouse; conditions: vehicle = 100
Protocol: MG concentration was measured by HPLC as previously described with modifications (Dhar 2009). Tissue was homogenized in 50 mM sodium phosphate buffer (pH 6.6) and 0.8N perchloric acid. It was then incubated on ice for 10 minutes and centrifuged. The supernatant was filtered, and MG was derivatized with 10 mM o-phenylenediamine to form 2-methylquinoxaline (2-MQ). 5-methylquinoxaline (5-MQ, 15 μM) was spiked into each sample as an internal standard. 2-MQ was quantified using an HP 1100 HPLC system (Agilent) with a Nova-Pak C18 column (Waters Corporation). Column effluent was monitored at 315 nm. 2-MQ concentration was determined by comparison to 2-MQ standards of known mass. Quantification of 2-MQ was corrected for losses by comparison with 5-MQ. MG concentration was calculated as 2-MQ/tissue weight. Treatment: Unless otherwise noted, crude MG was used for all behavioral experiments. MG was obtained from Sigma-Aldrich, filter-sterilized (0.22 μm filter, Millipore), diluted in vehicle (0.9% NaCl), and adjusted to pH 7.4. Mice were injected i.p. with 10 ml/kg MG or vehicle. HPLC: Ten minutes post-injection, mice were sacrificed, and brains were rapidly dissected and flash-frozen on dry ice. MG concentration was measured as described above.

[4] = 100 μM MG + 100 μM GABA vs 100 μM GABA alone

For CC(=O)C=O [MG, methylglyoxal], the “Hill co-efficient, currents in hippocampal neurons” value [1] was 1.05, the “current on co-application with GABA, relative to GABA alone, in hippocampal neurons” value [1, 4] was “approximately 60%” and the “current on co-application with GABA, relative to GABA alone, in CGN” value [2, 4] was “approximately 60%”. The “relative amplitude of MG-evoked current versus GABA in CGN” value ([2]; 100 μM MG vs 100 μM GABA) was “approximately one-third the magnitude of that elicited by 100 μM GABA”, the “Hill co-efficient, depolarization of CGN” value ([2]; whole-cell current clamp) was 1.17 and the “Hill co-efficient, inward currents in CGN” value ([2]; whole-cell voltage clamp) was 1.13. For the same compound, the “apoptosis in the brain (TUNEL)” value (apoptosis in the brain; MG 50 mg/kg i.p.) was “no evidence of increased apoptosis”, the “apoptosis in the brain (TUNEL)” value (apoptosis in the brain; MG 300 mg/kg i.p.) was “non-significantly increased apoptosis” and the “Relative MG concentration (%)” value ([3]; MG 50 mg/kg i.p.) was 115.75%. For the same compound, the “Relative MG concentration (%)” value ([3]; MG 100 mg/kg i.p.) was 127.40% and the “Relative MG concentration (%)” value ([3]; MG 300 mg/kg i.p.) was 160.94%.
